Test results: ChEMBL document CHEMBL1128709, “Discovery and structure-activity relationships of sulfonamide ETA-selective antagonists” (J Med Chem, 1995)

Sequences of proteins named here, by UniProt entry; tags and fusion partners are left off.
UniProt P26684, whole entry: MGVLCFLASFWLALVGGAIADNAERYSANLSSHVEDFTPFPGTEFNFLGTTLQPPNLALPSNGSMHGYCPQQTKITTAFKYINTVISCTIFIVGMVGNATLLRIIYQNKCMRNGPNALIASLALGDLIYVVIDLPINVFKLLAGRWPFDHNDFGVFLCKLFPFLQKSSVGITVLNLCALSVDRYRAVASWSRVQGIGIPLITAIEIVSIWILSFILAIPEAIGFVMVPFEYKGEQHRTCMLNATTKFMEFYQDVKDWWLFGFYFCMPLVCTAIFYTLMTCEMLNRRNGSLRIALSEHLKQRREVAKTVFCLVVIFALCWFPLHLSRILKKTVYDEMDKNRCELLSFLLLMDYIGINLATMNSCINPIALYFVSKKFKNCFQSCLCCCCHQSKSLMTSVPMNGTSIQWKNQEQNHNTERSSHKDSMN

Molecular target: Endothelin-1 receptor (Rattus norvegicus, UniProt P26684)
Experiment: Antagonism of [125 I]ET-1 binding to the rat endothelin receptor in vascular smooth muscle VSM-A10 cells.
Format: cell-based

In the case of `Cc1noc(NS(=O)(=O)c2cccc3c(N=C(c4ccccc4)c4ccccc4)cccc23)c1C`, the IC50 is reported as 39 µM.
